The text below walks through data of US9108900B2, “Method of treating diseases that respond to therapy by dopamine or dopamine agonists” (UCB Pharma GmbH, priority 2003, dated 2015).

By UniProt entry, the sequences of proteins in these tests, tags left out. Where a name states a change or a piece, a line headed by the entry shows the natural chain unless it says otherwise. Residues count along the entry.
UniProt P35462, whole entry: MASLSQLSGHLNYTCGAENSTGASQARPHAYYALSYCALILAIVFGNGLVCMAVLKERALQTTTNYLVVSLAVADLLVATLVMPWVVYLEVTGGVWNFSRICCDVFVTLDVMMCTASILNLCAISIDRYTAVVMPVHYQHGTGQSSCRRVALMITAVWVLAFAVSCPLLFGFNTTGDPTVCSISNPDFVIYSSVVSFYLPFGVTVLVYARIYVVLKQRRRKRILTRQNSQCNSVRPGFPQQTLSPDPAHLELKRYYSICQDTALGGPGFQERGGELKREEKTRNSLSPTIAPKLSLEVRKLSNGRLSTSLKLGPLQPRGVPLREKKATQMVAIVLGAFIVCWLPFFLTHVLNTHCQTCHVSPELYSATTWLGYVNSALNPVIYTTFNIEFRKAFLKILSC
UniProt P14416, whole entry: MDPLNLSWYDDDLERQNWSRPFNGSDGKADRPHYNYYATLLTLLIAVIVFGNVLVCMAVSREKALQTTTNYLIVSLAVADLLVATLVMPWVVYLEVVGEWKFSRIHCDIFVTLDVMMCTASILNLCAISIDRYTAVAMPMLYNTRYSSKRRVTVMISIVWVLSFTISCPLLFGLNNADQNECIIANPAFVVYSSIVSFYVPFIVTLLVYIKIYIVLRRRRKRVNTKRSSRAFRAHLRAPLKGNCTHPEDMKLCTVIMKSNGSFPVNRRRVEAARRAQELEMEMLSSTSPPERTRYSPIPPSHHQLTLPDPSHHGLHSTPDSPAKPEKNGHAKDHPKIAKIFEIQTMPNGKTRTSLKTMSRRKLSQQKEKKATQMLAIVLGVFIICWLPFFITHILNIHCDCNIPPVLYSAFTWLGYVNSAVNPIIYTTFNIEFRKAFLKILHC
UniProt P14416, 1-414 isoform P14416-2: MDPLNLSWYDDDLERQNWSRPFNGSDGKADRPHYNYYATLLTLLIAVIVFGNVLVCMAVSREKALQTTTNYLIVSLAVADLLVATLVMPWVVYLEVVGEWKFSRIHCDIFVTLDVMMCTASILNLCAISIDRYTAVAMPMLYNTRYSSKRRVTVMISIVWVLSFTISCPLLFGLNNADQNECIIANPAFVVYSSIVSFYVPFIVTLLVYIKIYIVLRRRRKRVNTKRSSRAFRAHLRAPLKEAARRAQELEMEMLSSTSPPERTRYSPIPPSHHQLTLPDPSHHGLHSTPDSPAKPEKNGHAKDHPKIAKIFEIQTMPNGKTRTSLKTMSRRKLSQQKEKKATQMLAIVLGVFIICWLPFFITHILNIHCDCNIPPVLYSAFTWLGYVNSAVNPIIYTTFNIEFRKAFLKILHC

For assay [1], the target named is D3 (Homo sapiens, UniProt P35462). The assay can be described thus: cell-based.
Assay [2] addresses D2L (Homo sapiens, UniProt P14416). The assay can be described thus: cell-based.
Assay [3] addresses T1, dopamine D3 (h) (Homo sapiens, UniProt P35462). The assay can be described thus: biochemical.
Assay [4] has as its target dopamine D2S (h) (Homo sapiens, UniProt P14416). Put plainly: biochemical.
Assay [5] addresses T1, dopamine D3 (h). The settings on record: receptor binding tests.

The EC50 is the concentration giving half of the maximal effect. Read a low EC50 as an effect from little substance. What is called Ki is a dissociation constant, usually derived from enzyme kinetics or from competition with a known ligand.

The structures appear in SMILES notation.

In turn, `CCCN[C@H]1CCc2c(O)cccc2C1` yielded an EC50 in assay [1] of 0.67 nM. The concentration for a half-maximal effect (EC50) in assay [2] is 2.7 nM. In assay [3], this molecule came in with an inhibitory constant (Ki) of 7.6 nM. This molecule also gave an inhibition constant (Ki) in assay [4] of 290 nM. Moreover, in assay [5], the “selectivity D3/D1” value is recorded as greater than 1000, the “selectivity D3/D2” value is listed as “approx. 40” and the “selectivity D3/D5” value is greater than 1000.
